In article PMC9885488 (Journal of medicinal chemistry, 2022):

Assay: Thermodynamic solubility in water
Assay type: physicochemical

**Q.** For `Cl.Nc1ncc(-c2cnc3ccc(C(=O)N4CCCCC4)cc3n2)cc1Cl` [Compound 40, (3-(6-Amino-5-chloropyridin-3-yl)quinoxalin-6-yl)(piperidin-1-yl)methanone], which “aq. sol. of HCl salt” value (solubility of HCl salt) is on record?
**A.** 26 µg/mL

**Q.** What about the aq. sol. (water, stirred 18 hours) of the same molecule?
**A.** 2.1 µg/mL
